Laboratory results as given in article PMC6270001, “Synthesis and Antiviral Activity of N-Phenylbenzamide Derivatives, a Novel Class of Enterovirus 71 Inhibitors” (Molecules, 2013).

Tests used:
Format in all cases: cell-based, Enterovirus 71
[1] = tested on: EV 71 strain H (genotype C2); test: Anti EV 71 activity assay (CPE, Reed & Muench) in Vero cells, strain H; conditions: selectivity index TC50/IC50, strain H; "-" stands for no antiviral selectivity
Experimental: (§1) The EV 71 was divided into three genotypes A, B and C based on nucleotide sequence comparisons, and genotypes B and C were subdivided into B1-B5 and C1-C5 [6, 10]. Genotype C is the most common genotype found in mainland China, especially the C4 subgenotype. Consequently, the intermediate compounds 1a, 1c and 1e, and the final products 2a–c, 3a–g, and 5a–f were evaluated for their anti-EV 71 activity in Vero cells against genotypes C4 (strains SZ-98 and JS-52-3), C2 (strain H) and A (strain BrCr). […] The IC50 values were calculated by the Reed and Muench method, and the cytotoxicity was monitored by the CPE method.
(§2) Vero cells were purchased from the American Type Culture Collection and cultured in Minimum Essential Medium (MEM) supplemented with 10% Fetal Bovine Serum (FBS) and antibiotics (100 U/mL penicillin G, 100 μg/mL streptomycin). Enterovirus 71 (EV 71) strain SZ-98 was kindly provided by Dr. Qi Jin, Institute of Pathogen Biology, Chinese Academy of Medical Science and Peking Union Medical School. Enterovirus 71 (EV 71) strain BrCr (VR-1775) was purchased from the American Type Culture Collection. Enterovirus 71 (EV 71) strain JS-52-3 was kindly provided by Dr. Xiang-zhong Ye, Beijing Wantai Biological Pharmacy Enterprise Co., Ltd. All Enterovirus 71 strains were propagated in Vero cells. […]

[2] = tested on: EV 71 strain BrCr (genotype A); test: Anti EV 71 activity assay (CPE, Reed & Muench) in Vero cells, strain BrCr; conditions: selectivity index TC50/IC50, strain BrCr; "-" stands for no antiviral selectivity
Experimental: as §1, §2

[3] = tested on: EV 71 strain SZ-98 (genotype C4); test: Anti EV 71 activity assay (CPE, Reed & Muench) in Vero cells, strain SZ-98; conditions: selectivity index TC50/IC50, strain SZ-98; "-" stands for no antiviral selectivity
Experimental: as §1, §2

[4] = tested on: EV 71 strains SZ-98, JS-52-3, H, BrCr; test: Anti EV 71 activity assay in Vero cells, summary over the four strains tested; conditions: TC50/IC50, range over the EV 71 strains tested
Experimental: as §1, §2

[5] = tested on: EV 71 strain JS-52-3 (genotype C4); test: Anti EV 71 activity assay (CPE, Reed & Muench) in Vero cells, strain JS-52-3; conditions: selectivity index TC50/IC50, strain JS-52-3; "-" stands for no antiviral selectivity
Experimental: as §1, §2

CCOC(=O)c1ccc(OCCC2CCN(c3ccc(C)nn3)CC2)cc1 [Pirodavir, pirodavir, reference compound]
SI H [1]: 52
SI BrCr [2]: 30
SI SZ-98 [3]: 25
selectivity index (SI) values (range over strains) [4]: 25–52
SI JS-52-3 [5]: 30
